The results in this text go back to patent US20250353852A1, “COMPOUNDS AND COMPOSITIONS THAT INHIBIT PIKFYVE” (Kineta, Inc., priority 2021, published 2025).

The chains behind the UniProt entries cited, without tags or fusion partners.
UniProt Q9Y2I7, whole entry S696N/L932S/Q995L/T998S/S1033A/Q1183K: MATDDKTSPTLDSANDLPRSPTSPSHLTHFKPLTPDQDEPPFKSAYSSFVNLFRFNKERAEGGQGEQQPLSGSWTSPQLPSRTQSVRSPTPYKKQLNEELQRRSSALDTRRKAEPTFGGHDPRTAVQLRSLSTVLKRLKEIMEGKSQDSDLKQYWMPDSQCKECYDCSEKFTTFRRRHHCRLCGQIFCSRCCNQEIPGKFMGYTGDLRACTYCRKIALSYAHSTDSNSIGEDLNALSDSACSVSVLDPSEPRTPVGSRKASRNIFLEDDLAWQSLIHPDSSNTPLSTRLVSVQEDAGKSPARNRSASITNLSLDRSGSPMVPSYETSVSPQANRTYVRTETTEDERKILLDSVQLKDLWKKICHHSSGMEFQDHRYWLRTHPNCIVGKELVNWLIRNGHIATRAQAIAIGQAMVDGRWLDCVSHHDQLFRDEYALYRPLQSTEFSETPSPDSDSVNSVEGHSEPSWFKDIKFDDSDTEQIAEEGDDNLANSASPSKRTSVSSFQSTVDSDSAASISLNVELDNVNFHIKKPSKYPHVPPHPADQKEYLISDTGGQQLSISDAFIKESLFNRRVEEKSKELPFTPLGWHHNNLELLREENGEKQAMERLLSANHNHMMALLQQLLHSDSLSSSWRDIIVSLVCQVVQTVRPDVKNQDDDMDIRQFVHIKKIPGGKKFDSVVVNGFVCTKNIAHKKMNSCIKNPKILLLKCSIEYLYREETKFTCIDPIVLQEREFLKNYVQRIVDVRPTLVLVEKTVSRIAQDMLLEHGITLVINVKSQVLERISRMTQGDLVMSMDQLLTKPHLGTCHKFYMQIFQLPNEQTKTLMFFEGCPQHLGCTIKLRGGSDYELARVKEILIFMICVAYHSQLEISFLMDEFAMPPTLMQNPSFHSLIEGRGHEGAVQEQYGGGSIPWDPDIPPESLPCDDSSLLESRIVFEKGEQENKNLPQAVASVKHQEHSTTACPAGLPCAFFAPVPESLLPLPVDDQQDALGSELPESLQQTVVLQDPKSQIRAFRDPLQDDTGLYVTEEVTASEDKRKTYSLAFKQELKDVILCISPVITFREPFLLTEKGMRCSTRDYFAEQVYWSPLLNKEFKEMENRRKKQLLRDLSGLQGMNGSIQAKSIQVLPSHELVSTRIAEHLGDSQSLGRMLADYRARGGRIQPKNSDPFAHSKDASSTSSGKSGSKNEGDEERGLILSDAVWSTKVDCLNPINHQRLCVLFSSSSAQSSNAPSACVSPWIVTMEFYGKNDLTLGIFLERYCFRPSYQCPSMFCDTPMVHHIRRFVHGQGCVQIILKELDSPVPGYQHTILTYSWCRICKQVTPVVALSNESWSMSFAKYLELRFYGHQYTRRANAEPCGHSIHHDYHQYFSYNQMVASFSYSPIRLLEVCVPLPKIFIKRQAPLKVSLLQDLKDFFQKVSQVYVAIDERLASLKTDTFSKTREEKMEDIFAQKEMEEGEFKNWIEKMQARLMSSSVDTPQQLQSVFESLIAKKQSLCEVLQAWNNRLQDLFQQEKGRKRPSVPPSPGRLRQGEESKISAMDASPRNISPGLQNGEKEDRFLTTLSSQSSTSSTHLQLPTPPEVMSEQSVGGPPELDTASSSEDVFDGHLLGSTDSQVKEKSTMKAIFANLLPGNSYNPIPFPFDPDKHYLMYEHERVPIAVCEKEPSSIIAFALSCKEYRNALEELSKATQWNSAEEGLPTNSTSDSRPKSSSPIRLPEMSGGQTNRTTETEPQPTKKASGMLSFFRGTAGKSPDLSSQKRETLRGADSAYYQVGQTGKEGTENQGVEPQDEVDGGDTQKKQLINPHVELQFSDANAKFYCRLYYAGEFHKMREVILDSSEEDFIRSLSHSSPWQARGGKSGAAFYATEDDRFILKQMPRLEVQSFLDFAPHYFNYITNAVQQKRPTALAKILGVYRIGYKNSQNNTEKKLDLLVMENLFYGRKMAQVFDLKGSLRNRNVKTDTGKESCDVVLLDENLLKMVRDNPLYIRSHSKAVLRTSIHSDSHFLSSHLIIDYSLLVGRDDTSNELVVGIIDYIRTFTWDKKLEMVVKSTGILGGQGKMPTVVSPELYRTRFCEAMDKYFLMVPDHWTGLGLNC

The test has as its target full-length human PIKFYVE (Homo sapiens (Human), UniProt Q9Y2I7, L932S/Q1183K/Q995L/S1033A/S696N/T998S). Kind of test: PIKfyve biochemical assay (ADP-Glo Kinase assay, Carna Biosciences). As to conditions: read-out: PIKFyve IC50; class symbols. Background: In ADP-Glo the light output rises with the ADP produced.

On to `c1cc(-c2cc3nc(-n4ncc5c4COCC5)cc(N4CCOCC4)n3n2)ccn1`, for which the IC50 – broadly, the midpoint of a concentration-inhibition curve – is 100 to 1000 nM.
